Measurements: PMC3237002, “Molecular Conversion of Muscarinic Acetylcholine Receptor M5 to Muscarinic Toxin 7 (MT7)-Binding Protein” (Toxins, 2011)

Sequences of proteins named here, by UniProt entry; tags and fusion partners are left off.
UniProt P08912, whole entry K175E/Q184Y/V474E: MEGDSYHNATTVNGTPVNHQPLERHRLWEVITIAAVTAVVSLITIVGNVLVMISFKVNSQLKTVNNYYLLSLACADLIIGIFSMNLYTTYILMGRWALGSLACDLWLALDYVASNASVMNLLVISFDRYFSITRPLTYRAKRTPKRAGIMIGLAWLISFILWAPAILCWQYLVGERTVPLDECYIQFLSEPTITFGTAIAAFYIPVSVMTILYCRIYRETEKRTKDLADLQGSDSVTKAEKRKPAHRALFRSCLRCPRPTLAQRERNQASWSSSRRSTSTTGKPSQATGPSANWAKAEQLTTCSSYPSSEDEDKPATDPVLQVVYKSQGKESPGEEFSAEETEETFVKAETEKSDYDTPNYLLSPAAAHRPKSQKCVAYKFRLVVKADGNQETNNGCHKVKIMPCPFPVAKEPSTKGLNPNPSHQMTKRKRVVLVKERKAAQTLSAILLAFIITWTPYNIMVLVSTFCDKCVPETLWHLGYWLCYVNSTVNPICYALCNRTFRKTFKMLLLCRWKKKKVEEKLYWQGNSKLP
UniProt P08912, whole entry: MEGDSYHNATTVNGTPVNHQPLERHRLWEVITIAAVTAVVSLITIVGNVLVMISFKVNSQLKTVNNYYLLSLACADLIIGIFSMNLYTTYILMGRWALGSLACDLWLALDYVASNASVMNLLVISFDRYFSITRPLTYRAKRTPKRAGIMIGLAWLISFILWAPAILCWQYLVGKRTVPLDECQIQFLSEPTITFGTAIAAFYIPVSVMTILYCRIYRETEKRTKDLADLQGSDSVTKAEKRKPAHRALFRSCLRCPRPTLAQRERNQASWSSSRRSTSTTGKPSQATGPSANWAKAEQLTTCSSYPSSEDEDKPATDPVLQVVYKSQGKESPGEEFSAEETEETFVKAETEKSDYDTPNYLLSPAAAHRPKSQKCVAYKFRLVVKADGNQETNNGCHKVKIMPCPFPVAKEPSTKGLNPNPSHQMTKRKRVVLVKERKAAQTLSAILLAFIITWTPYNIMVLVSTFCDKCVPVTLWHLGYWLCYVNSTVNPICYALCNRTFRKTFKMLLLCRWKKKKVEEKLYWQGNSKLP

Key:
[1] = target: M5-EYE (M5-E175Y184E474) receptor construct (Homo sapiens, UniProt P08912, K175E/Q184Y/V474E)
[2] = target: M5 receptor (Homo sapiens, UniProt P08912)

Structure (SMILES): C[N+](C)(C)CCOC(N)=O [CCh, Carbamoylcholine chloride]
- Max. Δ[Ca2+]i [1]: 246 ± 33 nM
- Max. Δ[Ca2+]i [2]: 498 ± 10 nM
